Data as given in patent publication US5821118A, “Genes for the subunits of human farnesyl-protein transferase” (Merck & Co., Inc., priority 1995, dated 1998).

Legend:
human FPTase = target: T1, human FPTase (Homo sapiens, UniProt P49354+P49356); test: Assay of compounds for FPTase inhibitory activity, once purified human FPTase; assay type: biochemical; settings: Human FTase; Ras protein 3.5 μM, pH 7.5, 30° C; * = alternative substrates (CVIM, CVIL, FPP)
T1 construct: codons for Glutamic acid-Glutamic acid-Phenylalanine-stop were placed after the last codon for the β subunit; made in house; host or cells: E. coli DH5a

Bovine brain FTase = target: T2, Bovine brain FTase (Bos taurus, UniProt P29702+P49355); test: Assay of compounds for FPTase inhibitory activity, bovine brain FPTase; assay type: biochemical; settings: Ras protein 3.5 μM, pH 7.5, 30° C, * = alternative substrates (CVIM, CVIL, FPP)
T2 construct: an assay employing bovine brain FPTase; from tissue; host or cells: bovine brain
Method: The purified, recombinantly expressed, mammalian FPTase is employed in an assay to determine the inhibitory activity against FPTase mediated farnesylation of Ras by various pharmaceutical compounds. […] The purified mammalian FPTase is then added to the assay mixture and the assay mixture is incubated for a period of time such as 10-30 minutes at 30° C. The assay mixture is then quenched and the Ras protein is separated from free FPP by techniques well known in the art. […] This value may be compared to the relative value of the amount of Ras farnesylated in the absence of the pharmaceutical agent and to the relative value of the amount of Ras farnesylated in the presence of other pharmaceutical agents.
[^3 H]Farnesyl diphosphate (FPP) (20 Ci/mmol) was purchased from New England Nuclear. In general, inhibitory activity assays were carried out at 30° C. A typical assay reaction contained (in a final volume of 50 μL): [^3 H]farnesyl diphosphate, Ras protein (3.5 μM), 50 mM HEPES, pH 7.5, 5 mM MgCl2, 1 mM dithiothreitol, and the compound to be assayed. […] Filters were washed four times with 2 mL aliquots of 100% ethanol, mixed with scintillation fluid (10 mL) and then counted in a Beckmann LS3801 scintillation counter.

For “cysteinylvalinyl-isolleucinyl-methionine [CVIM]”, the IC50 (human FPTase) was 100 nM and the IC50 (Bovine brain FTase) was 100 nM.
